The target of one test is KDR tyrosine kinase (Homo sapiens, UniProt P35968). The test is described as follows: In vitro enzyme assay (ELISA), Test (a), KDR. The note with it: read-out: IC50 versus KDR tyrosine kinase, ATP 8 μM. As for the experimental part: (§1) The ability of test compounds to inhibit the phosphorylation of a tyrosine containing polypeptide substrate by the tyrosine kinase enzymes PDGFRα, PDGFRβ and KDR was assessed using conventional ELISA assays. DNA encoding the PDGFRα, PDGFRβ or KDR receptor cytoplasmic domains may be obtained by total gene synthesis (International Biotechnology Lab., 1987, 5(3), 19-25) or by cloning. The DNA fragments may be expressed in a suitable expression system to obtain polypeptide with tyrosine kinase activity. For example, PDGFRα, PDGFRβ and KDR receptor cytoplasmic domains, obtained by expression of recombinant protein in insect cells, can be shown to display intrinsic tyrosine kinase activity. In the case of the VEGF receptor KDR (Genbank Accession No. L04947), a DNA fragment encoding most of the cytoplasmic domain, commencing with methionine 806 and including the termination codon may be cloned into a baculovirus transplacement vector [for example pAcYM1 (see The Baculovirus Expression System: A Laboratory Guide, L. A. King and R. D. Possee, Chapman and Hall, 1992) or pAc360 or pBlueBacHis (available from Invitrogen Corporation)]. This recombinant construct may be co-transfected into insect cells [for example Spodoptera frugiperda 21(Sf21) or Spodoptera frugiperda 9(Sf9)] with viral DNA (for example Pharmingen BaculoGold) to prepare recombinant baculovirus. Details of the methods for the assembly of recombinant DNA molecules and the preparation and use of recombinant baculovirus can be found in standard texts, for example Sambrook et al., 1989, Molecular cloning—A Laboratory Manual, 2nd edition, Cold Spring Harbour Laboratory Press and O'Reilly et al., 1992, Baculovirus Expression Vectors—A Laboratory Manual, W. H. Freeman and Co, New York).
For expression, Sf9 cells were infected with plaque-pure KDR recombinant virus and harvested 48 hours later. Harvested cells were washed with ice cold phosphate buffered saline solution (PBS) containing 10 mM sodium phosphate pH7.4 buffer, 138 mM sodium chloride and 2.7 mM potassium chloride) and resuspended in ice cold cell diluent comprising 20 mM Hepes pH7.5 buffer, 150 mM sodium chloride, 10% v/v glycerol, 1% v/v Triton X100, 1.5 mM magnesium chloride, 1 mM ethylene glycol-bis(βaminoethyl ether) N,N,N′,N′-tetraacetic acid (EGTA) and 1 mM PMSF (phenylmethylsulphonyl fluoride) [the PMSF is added just before use from a freshly-prepared 100 mM solution in methanol] using 1 ml cell diluent per 10 million cells. The suspension was centrifuged for 10 minutes at 13,000 rpm at 4° C. The supernatant (stock enzyme solution) was removed and stored in aliquots at −70° C.
A substrate solution [100 μl of a 2 μg/ml solution of the poly-amino acid Poly(Glu, Ala, Tyr) 6:3:1 (Sigma-Aldrich Company Ltd., Poole, Dorset; Catalogue No. P3899) in phosphate buffered saline (PBS)] was added to each well of a number of Nunc 96-well MaxiSorp immunoplates (Nunc, Roskilde, Denmark; Catalogue No. 439454) and the plates were sealed and stored at 4° C. for 16 hours. The excess of substrate solution was discarded and the wells were washed in turn with PBS containing 0.05% v/v Tween 20 (PBST; 300 μl/well) and twice with Hepes pH7.4 buffer (50 mM, 300 μl/well) before being blotted dry.
Each test compound was dissolved in DMSO and diluted with a 10% solution of DMSO in distilled water to give a series of dilutions (from 40 μM to 0.0012 μM). Aliquots (25 μl) of each dilution of test compound were transferred to wells in the washed assay plates. […]

Amino acid sequences for entries named in this document (tags omitted). Residues count along the entry.
UniProt P35968, 786-1356 limits assumed: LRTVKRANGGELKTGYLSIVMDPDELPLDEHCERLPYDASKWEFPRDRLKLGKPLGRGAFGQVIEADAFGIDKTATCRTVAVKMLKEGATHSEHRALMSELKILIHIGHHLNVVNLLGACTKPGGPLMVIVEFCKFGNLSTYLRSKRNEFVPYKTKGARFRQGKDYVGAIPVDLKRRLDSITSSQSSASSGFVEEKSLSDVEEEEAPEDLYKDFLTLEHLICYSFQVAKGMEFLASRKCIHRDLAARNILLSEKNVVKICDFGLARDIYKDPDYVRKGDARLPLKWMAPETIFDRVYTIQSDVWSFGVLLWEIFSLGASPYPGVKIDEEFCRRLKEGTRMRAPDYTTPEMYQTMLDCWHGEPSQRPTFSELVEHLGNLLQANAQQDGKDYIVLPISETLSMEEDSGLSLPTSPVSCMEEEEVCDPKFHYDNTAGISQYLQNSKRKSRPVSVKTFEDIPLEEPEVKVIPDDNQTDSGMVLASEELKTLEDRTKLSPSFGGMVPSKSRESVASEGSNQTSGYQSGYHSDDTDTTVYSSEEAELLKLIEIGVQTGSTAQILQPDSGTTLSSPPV
UniProt P09619, 33-1106 limits assumed: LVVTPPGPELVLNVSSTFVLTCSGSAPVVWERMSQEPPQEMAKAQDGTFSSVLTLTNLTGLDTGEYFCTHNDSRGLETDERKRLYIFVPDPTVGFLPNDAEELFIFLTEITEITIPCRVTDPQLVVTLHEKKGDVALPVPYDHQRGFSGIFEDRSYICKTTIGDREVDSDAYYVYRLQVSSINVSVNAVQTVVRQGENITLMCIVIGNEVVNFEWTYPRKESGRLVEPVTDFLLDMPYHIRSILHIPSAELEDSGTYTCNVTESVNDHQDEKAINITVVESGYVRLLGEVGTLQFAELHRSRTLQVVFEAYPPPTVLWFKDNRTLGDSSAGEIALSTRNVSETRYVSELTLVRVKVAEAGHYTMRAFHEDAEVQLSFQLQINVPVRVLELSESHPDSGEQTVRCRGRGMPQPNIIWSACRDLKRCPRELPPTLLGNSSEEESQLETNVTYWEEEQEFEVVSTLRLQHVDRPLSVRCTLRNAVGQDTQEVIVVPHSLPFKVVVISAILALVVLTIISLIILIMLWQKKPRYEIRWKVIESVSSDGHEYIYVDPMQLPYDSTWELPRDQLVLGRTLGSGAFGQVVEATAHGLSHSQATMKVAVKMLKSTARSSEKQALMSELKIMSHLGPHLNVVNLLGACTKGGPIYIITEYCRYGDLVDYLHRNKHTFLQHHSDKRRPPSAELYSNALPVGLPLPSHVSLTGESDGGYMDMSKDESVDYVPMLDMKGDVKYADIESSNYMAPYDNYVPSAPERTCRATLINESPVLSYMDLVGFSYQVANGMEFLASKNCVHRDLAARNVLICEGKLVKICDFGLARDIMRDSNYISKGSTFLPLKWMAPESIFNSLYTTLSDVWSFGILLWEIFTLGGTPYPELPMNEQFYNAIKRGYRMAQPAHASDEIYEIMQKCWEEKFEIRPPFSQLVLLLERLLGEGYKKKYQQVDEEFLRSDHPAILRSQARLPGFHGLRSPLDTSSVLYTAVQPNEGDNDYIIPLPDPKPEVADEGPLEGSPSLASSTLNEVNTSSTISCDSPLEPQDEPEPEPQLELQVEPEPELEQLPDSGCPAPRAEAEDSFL
UniProt P09619, 554-1106 limits assumed: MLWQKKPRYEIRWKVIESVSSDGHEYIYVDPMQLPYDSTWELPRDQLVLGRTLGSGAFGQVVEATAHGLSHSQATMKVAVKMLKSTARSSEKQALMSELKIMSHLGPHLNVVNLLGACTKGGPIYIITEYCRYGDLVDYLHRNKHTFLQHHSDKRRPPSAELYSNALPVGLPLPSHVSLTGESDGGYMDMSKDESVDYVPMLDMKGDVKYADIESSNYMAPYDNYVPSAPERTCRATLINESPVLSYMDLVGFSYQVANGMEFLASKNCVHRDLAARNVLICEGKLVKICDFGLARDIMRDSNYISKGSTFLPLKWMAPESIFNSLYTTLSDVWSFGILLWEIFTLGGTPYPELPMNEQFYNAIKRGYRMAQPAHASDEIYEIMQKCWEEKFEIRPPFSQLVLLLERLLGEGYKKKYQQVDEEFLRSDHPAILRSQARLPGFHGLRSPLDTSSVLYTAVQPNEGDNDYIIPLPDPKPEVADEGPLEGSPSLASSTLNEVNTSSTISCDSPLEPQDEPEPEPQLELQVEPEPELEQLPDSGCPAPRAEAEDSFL
UniProt P16234, 550-1089 limits assumed: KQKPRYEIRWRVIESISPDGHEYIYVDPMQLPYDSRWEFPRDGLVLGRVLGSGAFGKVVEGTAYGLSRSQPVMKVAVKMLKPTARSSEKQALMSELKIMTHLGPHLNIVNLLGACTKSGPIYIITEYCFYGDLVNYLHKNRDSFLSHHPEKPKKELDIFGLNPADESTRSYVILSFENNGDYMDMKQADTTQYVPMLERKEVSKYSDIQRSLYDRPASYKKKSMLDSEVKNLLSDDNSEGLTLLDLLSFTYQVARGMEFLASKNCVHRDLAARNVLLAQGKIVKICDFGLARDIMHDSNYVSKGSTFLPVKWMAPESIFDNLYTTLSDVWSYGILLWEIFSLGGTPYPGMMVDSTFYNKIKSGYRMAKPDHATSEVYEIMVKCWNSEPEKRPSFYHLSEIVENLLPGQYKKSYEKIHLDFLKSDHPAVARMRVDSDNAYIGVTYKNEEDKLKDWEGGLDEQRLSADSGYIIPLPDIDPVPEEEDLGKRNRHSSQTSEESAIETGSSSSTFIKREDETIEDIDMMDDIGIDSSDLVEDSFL

For the next test, the target named is phospho-Tyr751 PDGFRβ (Homo sapiens, UniProt P09619). Briefly: In vitro phospho-Tyr751 PDGFRβ ELISA assay in MG63 osteosarcoma cells, Test (b). The settings on record: read-out: IC50 versus phospho-Tyr751 PDGFRβ, MG63 cells stimulated with PDGFBB. As for the experimental part:
This assay uses a conventional ELISA method to determine the ability of test compounds to inhibit phosphorylation of tyrosine in PDGFRβ.
An MG63 osteosarcoma cell line [American Type Culture Collection (ATCC) CCL 1427] was routinely maintained at 37° C. with 7.5% CO2 in Dulbecco's modified Eagle's growth medium (DMEM; Sigma-Aldrich; Catalogue No. D6546) containing 10% foetal calf serum (FCS; Sigma-Aldrich; Catalogue No. F7524) and 2 mM L-glutamine (Invitrogen Ltd., Paisley, UK; Catalogue No. 25030-024).
For the assay, the cells were detached from the culture flask using a trypsin/ethylenediaminetetraacetic acid (EDTA) mixture (Invitrogen Ltd.; Catalogue No. 15400-054) and resuspended in test media comprising DMEM without phenol red (Sigma-1-Aldrich; Catalogue No. D5921) containing 1% charcoal-stripped-foetal calf serum (FCS) (Sigma-Aldrich; Catalogue No. F7524, stripped by incubation with dextran-coated activated charcoal at 55° C. for 30 minutes with continuous stirring followed by removal of the charcoal by centrifugation and filter sterilisation) and 2 mM L-glutamine (Invitrogen Ltd., Catalogue No. 25030-024) to give 6×10^4 cells per ml. Aliquots (100 μl) were seeded into each of the wells of columns 2-12 (excluding column 1) and rows B-G (excluding rows A and H) of a clear 96 well tissue culture plate (Corning Life Sciences, Koolhovenlaan, The Netherlands; Catalogue No. 3595) to give a density of about 6000 cells per well. Aliquots (100 μl) of culture media were placed in the outer wells to minimise edge effects. The cells were incubated overnight at 37° C. with 7.5% CO2 to allow the cells to adhere to the wells.
Test compounds were prepared as 10 mM stock solutions in DMSO and serially diluted as required with test media to give a range of concentrations. Aliquots (50 μl) of each compound concentration were added to the cells in each well. Control cells received a dilution of DMSO only. The cells were incubated for 90 minutes at 37° C. with 7.5% CO2.
The resultant cells were stimulated with PDGFBB using the following procedure. A lyophilised powder of PDGFBB, (Sigma-Aldrich; Catalogue No. P4306) was mixed with 4 mM aqueous hydrochloric acid containing 0.1% filter-sterilised BSA to provide a stock solution of 10 μg/ml of PDGFBB. A dilution of this stock solution into test medium provided a 200 ng/ml PDGFBB solution. Aliquots thereof (50 μl) were added to compound treated cells and to one set of control wells to give the “maximum” control. The “minimum” controls received media only. The cells were incubated at 37° C. with 7.5% CO2 for 5 minutes. […]

For another test, the target named is PDGFRα tyrosine kinase (Homo sapiens, UniProt P16234). Briefly: In vitro enzyme assay (ELISA), Test (a), PDGFRα. The settings on record: read-out: IC50 versus PDGFRα tyrosine kinase, ATP 14 μM. As for the experimental part: as §1, with “Details of the methods for the assembly of recombinant DNA molecules and the preparation and use of recombinant baculovirus can be found in standard texts, for example Sambrook et al., 1989, Molecular cloning—A Laboratory Manual, 2nd edition, Cold Spring Harbour Laboratory Press and O'Reilly et al., 1992, Baculovirus Expression Vectors—A Laboratory Manual, W. H. Freeman and Co, New York).” left out

The next test concerns the target PDGFRβ tyrosine kinase (Homo sapiens, UniProt P09619). The test is described as follows: In vitro enzyme assay (ELISA), Test (a), PDGFRβ. The note with it: read-out: IC50 versus PDGFRβ tyrosine kinase, ATP 2.8 μM. As to the method: as §1, with “Details of the methods for the assembly of recombinant DNA molecules and the preparation and use of recombinant baculovirus can be found in standard texts, for example Sambrook et al., 1989, Molecular cloning—A Laboratory Manual, 2nd edition, Cold Spring Harbour Laboratory Press and O'Reilly et al., 1992, Baculovirus Expression Vectors—A Laboratory Manual, W. H. Freeman and Co, New York).” left out

With `COc1cc2c(Oc3cnn(CC(=O)Nc4cccc5c4OCCO5)c3)ncnc2cc1OCCO`, the IC50 was 25 nM on KDR tyrosine kinase and 3 nM on phospho-Tyr751 PDGFRβ.
On the same counts, the results for `CCOc1cc2ncnc(Oc3cnn(CC(=O)Nc4cccc(CO)c4)c3)c2cc1OC` are 35 nM and 1 nM.
Regarding `COc1cc2ncnc(Oc3cnn(CC(=O)Nc4ccc(Cl)c(CN(C)C)c4)c3)c2cc1OC`, the IC50 on KDR tyrosine kinase was 10 nM; on PDGFRα tyrosine kinase, 170 nM; at PDGFRβ tyrosine kinase, 100 nM; on phospho-Tyr751 PDGFRβ it was 0.5 nM.
Regarding `COc1cc2ncnc(Oc3cnn(CC(=O)Nc4ccc5c(c4)OCCN5C)c3)c2cc1OC`, the IC50 at KDR tyrosine kinase and at phospho-Tyr751 PDGFRβ was 1 nM throughout.
Regarding `COc1cc2ncnc(Oc3cnn(CC(=O)Nc4cc(C)cc(CNC5CC5)c4)c3)c2cc1OC`, the results for the IC50 at KDR tyrosine kinase, on PDGFRα tyrosine kinase and at PDGFRβ tyrosine kinase were 10 nM, 240 nM and 50 nM, respectively.

The values above are taken from patent publication US20090036474A1, “Quinazoline derivatives for use against cancer” (priority 2004, published 2009).
